These results are taken from paper PMC8338886 (Clinical Cancer Research, 2021).

The test deals with T1, Human PD-L2 (human, UniProt Q9BQ51).
T1 sequence: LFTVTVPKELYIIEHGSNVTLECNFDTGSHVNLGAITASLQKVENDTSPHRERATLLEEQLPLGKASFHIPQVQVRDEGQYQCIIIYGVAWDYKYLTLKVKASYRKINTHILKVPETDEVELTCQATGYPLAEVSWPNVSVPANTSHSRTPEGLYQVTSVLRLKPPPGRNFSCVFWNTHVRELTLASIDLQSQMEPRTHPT
Briefly: SPR. (Surface plasmon resonance follows binding to a sensor surface in real time, without labels.)

B1: sPD-1 wild-type Fc (Fc fusion)
chain: LDSPDRPWNPPTFSPALLVVTEGDNATFTCSFSNTSESFVLNWYRMSPSNQTDKLAAFPEDRSQPGQDCRFRVTQLPNGRDFHMSVVRARRNDSGTYLCGAISLAPKAQIKESLRAELRVTERRAEVPTAHPSPSPRPAGQFQTLV
Molecule B1 showed a Kd of 547 nM.

A word on the Kd: it is the concentration at which binding is half-saturated. Low values mean higher affinity, high ones lower affinity.
